# Data: patent US4952591A, “Anti-ulcer urea derivatives” (Kyorin Pharmaceutical Co., Ltd., priority 1987, dated 1990)
# Protein sequences, listed by entry. Tags and fused reporters are not part of them.
# UniProt P47747, whole entry: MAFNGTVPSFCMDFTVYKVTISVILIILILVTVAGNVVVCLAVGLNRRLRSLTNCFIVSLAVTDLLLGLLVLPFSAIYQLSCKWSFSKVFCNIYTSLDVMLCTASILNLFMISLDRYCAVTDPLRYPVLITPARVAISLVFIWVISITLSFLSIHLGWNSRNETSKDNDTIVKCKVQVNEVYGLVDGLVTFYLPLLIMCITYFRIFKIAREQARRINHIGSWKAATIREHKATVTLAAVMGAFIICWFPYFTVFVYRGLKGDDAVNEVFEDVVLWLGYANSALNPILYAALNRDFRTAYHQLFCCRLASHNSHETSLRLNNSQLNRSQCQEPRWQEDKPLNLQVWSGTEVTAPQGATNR
# Target: T1, Histamine H2-receptor (Cavia porcellus, UniProt P47747)
# T1 construct: The right atrium was dissected and suspended at 0.5 g tension in a 10 ml organ bath; from tissue; host or cells: isolated right atrium of male Hartley guinea-pigs
# Assay: Histamine H2-receptor antagonism (isolated right atrium, positive chronotropic effect of histamine)
# Design: species or system Male Hartley guinea-pigs
# Conditions: guinea-pig right atrium, 32±1° C., drugs added 5 minutes before histamine
# Procedure: Male Hartley guinea-pigs, weighing between 300 and 400 g, were used in the experiment. The right atrium was dissected and suspended at 0.5 g tension in a 10 ml organ bath containing Krebs-Henseleit's solution, kept at 32±1° C. and bubbled with the gas mixture (95 % O2 and 5 % CO2). Contractions were recorded with a force-displacement transducer through a strain gange. Cumulative concentration-response curves for the positive chronotropic effect of histamine on atrium were displaced to the right in parallel by drugs, and the effects of test drugs were calculated as the pA2 values. Drugs were added into the organ bath 5 minutes before histamine treatment.
smiles,measurement,value
"CN/C(=N/CCSCc1nc[nH]c1C)NC#N [Cimetidine, reference compound]",pA2,6.58
